Data taken from patent EP1352977A2, “Novel Desulfitobacterium strain for the degradation of chloroalkenes” (UNIVERSITEIT GENT, priority 2002, dated 2003).
Read-outs that look alike come from different tables or passages of the source.

Tests used:
[1] = tested on: Dehalococcoides ethenogenes strain 195; details: cited from earlier work; for selectivity VC: VC produced upon conversion; for selectivity ethene: molar selectivity
[2] = tested on: Desulfitobacterium dichloroeliminans strain DCA1; assay: 1,2-DCA dechlorination by culture of strain DCA1 (rate, conversion, selectivity)
[3] = tested on: bi-bacterial consortium comprising Desulfitobacterium dichloroeliminans strain DCA1 and Enterococcus cells; assay: Dechlorination of 1,2-DCA containing groundwater by 1 vol% inoculum of bacterial consortium

In the case of 1,2-dichloroethane, the “selectivity VC” value ([1]; listed as 1,2 DCA) is listed as 1%, the “selectivity VC” value [1] is listed as 1% and the “1,2 DCA conversion rate” value [1] is listed as 2 to 36 µmol (L.h). The conversion [1] was “∼100%”, the selectivity ethene ([1]; listed as 1,2 DCA) was over 99.0% and the selectivity ethene [1] was 99%. The dechlorination rates ([2]; pure culture of strain DCA1, media containing 0.1% (w/w) yeast extract) was “exceeded 250 nmol Cl^- /mgprotein/min”, the “1,2 DCA conversion rate” value ([2]; strain DCA1) was 5 to 56 µmol (L.h) and the “time to convert 400 µM of 1,2-DCA” value ([2]; vitamin B12 containing media, 5 vol% transfer) was at most 3 days. For the same substance, the “amount of 1,2-DCA dichloroeliminated” value ([2]; with additional electron donors H2, lactate or pyruvate, 0.02% yeast extract) was “up to 6 mM”, the “time to full detoxification” value ([3]; groundwater containing 400 µM of 1,2-DCA, laboratory conditions, 18°C) was at most 1 week and the “time to dechlorinate 400 µM 1,2-DCA containing groundwater” value ([3]; technical grade lactate, 13°C) was at most 10 days.
